In patent US7022738B2, “α-ketoamide derivative and use thereof” (Senju Pharmaceutical Co., Ltd., priority 2002, dated 2006) one finds IC50 data, which are given here for one compound.

The chains behind the UniProt entries cited, without tags or fusion partners. Where a name states a change or a piece, a line headed by the entry shows the natural chain unless it says otherwise.
UniProt P07384: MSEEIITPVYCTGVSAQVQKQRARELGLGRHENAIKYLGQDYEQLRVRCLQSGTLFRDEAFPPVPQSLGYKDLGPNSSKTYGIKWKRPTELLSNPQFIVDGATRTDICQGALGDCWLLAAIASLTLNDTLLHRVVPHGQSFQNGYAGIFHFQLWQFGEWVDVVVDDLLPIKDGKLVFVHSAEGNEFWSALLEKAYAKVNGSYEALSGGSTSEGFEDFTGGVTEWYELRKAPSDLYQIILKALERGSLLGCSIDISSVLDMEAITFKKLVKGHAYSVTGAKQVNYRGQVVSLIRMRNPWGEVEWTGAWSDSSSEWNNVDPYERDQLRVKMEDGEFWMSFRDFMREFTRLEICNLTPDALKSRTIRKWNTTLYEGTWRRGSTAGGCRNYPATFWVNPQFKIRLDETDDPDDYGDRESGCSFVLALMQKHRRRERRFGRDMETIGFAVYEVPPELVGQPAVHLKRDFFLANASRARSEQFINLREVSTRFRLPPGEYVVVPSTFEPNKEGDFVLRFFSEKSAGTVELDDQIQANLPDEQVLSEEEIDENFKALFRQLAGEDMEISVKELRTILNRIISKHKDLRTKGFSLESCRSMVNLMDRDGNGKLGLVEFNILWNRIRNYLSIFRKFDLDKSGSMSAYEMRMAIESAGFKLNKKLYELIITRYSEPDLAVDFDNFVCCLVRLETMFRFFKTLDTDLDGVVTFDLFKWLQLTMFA

In this assay the target is μ-calpain (Homo sapiens, UniProt P07384). Kind of assay: biochemical.

What is called IC50 is the concentration needed to halve the response being measured. A low value points to greater potency. In turn, `CCCCNC(=O)C(=O)[C@H](CC(C)C)NC(=O)[C@@H](NS(=O)(=O)c1ccc(F)cc1)C(C)C` [Compound 1, (3S)-N-Butyl-3-((2S)-2-(((4-fluorophenyl)sulfonyl)amino)-3-methylbutanoylamino)-5-methyl-2-oxohexanamide] returned an IC50 of 21 nM.
